We go through one molecule from publication PMC7460837 (International Journal of Molecular Sciences, 2020).

In this experiment the target is T1, Recombinant Bet v 1 (Bet v 1.0101) (Betula verrucosa, UniProt P15494 1-160).
T1 construct: Major birch pollen allergen Bet v 1, isoallergen Bet v 1.0101, from Betula verrucosa; In the internalisation assay it carried pHrodo Green (STP ester labelling, dye:protein about 10:1); also called major birch pollen allergen; source: E. coli, recombinant, as previously described [51,52]
T1 sequence (looked up): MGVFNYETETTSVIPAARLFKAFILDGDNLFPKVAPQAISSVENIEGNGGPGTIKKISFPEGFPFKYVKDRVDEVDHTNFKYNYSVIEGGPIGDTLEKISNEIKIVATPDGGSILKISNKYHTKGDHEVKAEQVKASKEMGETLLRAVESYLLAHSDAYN
Description: far-Western, overlay or dot blot; Bet v 1 (0.5, 1 and 5 µg) and BLG (1 µg) spotted on nitrocellulose; strips incubated with antibody at 1 µg/mL in PBS with 0.1% Tween 20 for 1 h, room temperature; HRP-labelled anti-isotype detection. The conditions noted are these: both partners purified.

B1: M0418 IgE (antibody)
heavy: QVQLVQSGAEVKKPGESLKISCKGSEYSFPNYWIAWVRQMPGKGLEWMGMIYPGDSDTRYSPSFQGQVNISADKSSRTAFLEWSSLKASDSATYFCARLGGQLWNSYYYYYYMDVWGKGTTVTVSSASTQSPSVFPLTRCCKNIPSNATSVTLGCLATGYFPEPVMVTWDTGSLNGTTMTLPATTLTLSGHYATISLLTVSGAWAKQMFTCRVAHTPSSTDWVDNKTFSVCSRDFTPPTVKILQSSCDGGGHFPPTIQLLCLVSGYTPGTINITWLEDGQVMDVDLSTASTTQEGELASTQSELTLSQKHWLSDRTYTCQVTYQGHTFEDSTKKCADSNPRGVSAYLSRPSPFDLFIRKSPTITCLVVDLAPSKGTVNLTWSRASGKPVNHSTRKEEKQRNGTLTVTSTLPVGTRDWIEGETYQCRVTHPHLPRALMRSTTKTSGPRAAPEVYAFATPEWPGSRDKRTLACLIQNFMPEDISVQWLHNEVQLPDARHSTTQPRKTKGSGFFVFSRLEVTRAEWEQKDEFICRAVHEAASPSQTVQRAVSVNPGK
light: SYELTQPPSASGTPGQRVTISCSGSSSNIGGNTVNWYQQVPGTAPRLLIYKNNQRPSGVPDRFSGSKSGTSASLAISGLRSEDEADYYCEAWDGGLRGGVFGGGTKLTVLGKRTVAAPSVFIFPPSDEQLKSGTASVVCLLNNFYPREAKVQWKVDNALQSGNSQESVTEQDSKDSTYSLSSTLTLSKADYEKHKVYACEVTHQGLSSPVTKSFNRGEC
Regarding B1, the binding result is given as “binds”.
